Reference: patent US20140171510A1, “HO[…] AND/OR CONJUGATES OF AMPHETAMINE AND OTHER […] PROCESSES FOR MAKING AND USING THE SAME” (priority 2011, published 2014)

Experiment: Intravenous study in rats, plasma d-amphetamine by ELISA (Example 8)
Conditions: […] equivalent

**Q.** Which Tmax does the source give for “l-lysine-d-amphetamine [Lys-Amp, reference compound]” here?
**A.** Its Tmax is 15 m.
